This is a selection; strong and weak results do not stand in their true shares. Calls of active or inactive are those of the source.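 How the source made its calls: active means inhibition above a set limit, near 3 SD of compounds lacking own fluorescence (cut at about 54% in these data); inactive means the rest.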
Tested on: beta-arrestin 1 C-terminal peptide binding to AP2 beta2-adaptin appendage (human)
Assay: inhibitors of beta-arrestin/AP2 binding, primary screen, biochemical, GPCR trafficking, flow cytometry (AID 504490);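 further: plate controls were DMSO wells for no effect and 5 µM unlabelled arrestin peptide for full effect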
Settings: FITC-arrestin peptide / GST-AP2 beads, at 10 µM, stronger effect = higher value, AP2 beta2 appendage carries R879A mutation

Row | SMILES | inhibition
1 | O=C(NCC1(N2CCCCC2)CCCCC1)c1cncc(Br)c1 | inactive: -18.3%
2 | CN1CCC(Nc2cccc(F)c2)CC1 | inactive: -2.73%
3 | CCCOc1ccc(C(=O)NCC2(N(C)C)CCCCC2)cc1OC | inactive: -13%
4 | CC(C)c1ccc(NC2CCN(C(=O)OC(C)(C)C)CC2)cc1 | inactive: 21.8%
5 | COc1ccc(CN(CCCl)CCCl)cc1Cl | inactive: -18.5%
6 | CN(C)c1cccc(C(=O)NCC2(N3CCCCC3)CCCCC2)c1 | inactive: 18.8%
7 | COc1cc(OC)c(C(=O)NCC2(N(C)C)CCCCC2)cc1OC | inactive: 39.8%
8 | O=C(NCC1(N2CCOCC2)CCCCC1)c1cc(F)c(F)cc1Cl | inactive: 4.04%
9 | O=C(NCC1(N2CCCCC2)CCCCC1)c1cccc(C(F)(F)F)c1 | inactive: 0.83%
10 | O=C(NCC1(N2CCOCC2)CCCCC1)c1cc(=O)[nH]c2ccccc12 | inactive: 15.4%
11 | COc1cc(C(=O)NCC2(N3CCCCC3)CCCCC2)ccc1OC(F)F | inactive: -8.89%
12 | CC(C)c1ccc(C(=O)NCC2(N3CCOCC3)CCCCC2)cc1 | inactive: -1.92%
13 | COc1ccc(NC2CCN(C(=O)OC(C)(C)C)CC2)cc1 | inactive: 12%
14 | CN1CCN(CCOC(=O)C(O)(c2ccccc2)c2ccccc2)CC1 | inactive: 4.75%
15 | O=C(NCC1(N2CCCCC2)CCCCC1)c1ccc(OC(F)F)cc1 | inactive: 0.47%
16 | CCN1CCC(Nc2ccc(Cl)cc2)CC1 | inactive: 15.3%
17 | N#CC1(Nc2ccccc2)CCN(CCc2ccccc2)CC1 | inactive: 37.7%
18 | CSc1ccc(C(=O)NCC2(N3CCOCC3)CCCCC2)cc1 | inactive: 36%
19 | O=C(NCC1(N2CCCCC2)CCCCC1)c1cccc([N+](=O)[O-])c1 | inactive: 31.8%
20 | COc1cc(C(=O)NCC2(N(C)C)CCCCC2)ccc1OC(F)F | inactive: -0.92%
21 | CCOC(=O)N1CCC(Nc2cccc(C)c2)CC1 | inactive: 5.01%
22 | O=C1CCN(Cc2ccccc2)CC1 | inactive: 14.4%
23 | CCOc1ccc(C)cc1CN(CCCl)CCCl | inactive: -0.47%
24 | O=C(NCC1(N2CCCCC2)CCCCC1)c1ccc(F)cc1 | inactive: -13.5%
25 | CCCCOc1ccc(C(=O)NCC2(N3CCOCC3)CCCCC2)cc1 | inactive: 44.6%

Row | SMILES | inhibition
26 | O=P1(N(CCCl)CCCl)SCCCS1 | inactive: 20.3%
27 | CCOC(=O)N1CCC(Nc2ccc(F)cc2)CC1 | inactive: 3.96%
28 | COc1ccc(NC2CCN(CCc3ccccc3)CC2)c(OC)c1 | inactive: 29.8%
29 | O=C(NCC1(N2CCCCC2)CCCCC1)c1ccc(Cl)nc1 | inactive: -1.54%
30 | Cc1cc(C)cc(N(C(=O)c2ccccc2)C2CCN(C(=O)OC(C)(C)C)CC2)c1 | inactive: 0.98%
31 | O=C(NCC1(N2CCOCC2)CCCCC1)c1cc2ccccc2o1 | inactive: -5.81%
32 | O=C(OC1CN2CCC1CC2)C1c2ccccc2Oc2ccccc21 (centres undefined) | inactive: -8.81%
33 | N#CC1(Nc2ccccc2)CCN(Cc2ccccc2)CC1 | inactive: 2.57%
34 | O=C(NCC1(N2CCCCC2)CCCCC1)c1ccc(Cl)s1 | inactive: 11.3%
35 | COc1ccc(Cl)cc1C(=O)NCC1(N2CCOCC2)CCCCC1 | inactive: -5.85%
36 | CCOC(=O)N1CCC(Nc2ccc(OC)cc2)CC1 | inactive: 1.54%
37 | COc1ccc(C(=O)NCC2(N3CCCCC3)CCCCC2)cc1 | inactive: 6.79%
38 | CC(C)(C)OC(=O)N1CCC(N(C(=O)c2ccccc2)c2ccc(F)cc2)CC1 | inactive: 11.1%
39 | COc1ccc(C(=O)NCC2(N3CCCCC3)CCCCC2)c(OC)c1OC | inactive: -6.29%
40 | O=C(NCC1(N2CCCCC2)CCCCC1)c1ccc(=O)[nH]c1 | inactive: 2.45%
41 | O=C(NCC1(N2CCCCC2)CCCCC1)c1cccs1 | inactive: 4.86%
42 | CSc1ccccc1C(=O)NCC1(N2CCCCC2)CCCCC1 | inactive: 18.9%
43 | Cc1cccc(NC2(C#N)CCN(Cc3ccccc3)CC2)c1 | inactive: 10.2%
44 | COc1cccc(C(=O)N(c2cc(C)cc(C)c2)C2CCN(C(=O)OC(C)(C)C)CC2)c1 | inactive: -7.8%
45 | COc1cc(OC)cc(C(=O)NCC2(N3CCOCC3)CCCCC2)c1 | inactive: -29.3%
46 | CCC(CO)(C(=O)OC1CN2CCC1CC2)c1ccccc1 (centres undefined) | inactive: 12.1%
47 | CN1CCC(Nc2ccc(Cl)cc2)CC1 | inactive: 10.8%
48 | CCOc1ncccc1C(=O)NCC1(N2CCOCC2)CCCCC1 | inactive: 1.5%
49 | CN1CCC(Nc2ccc(F)c(Cl)c2)CC1 | inactive: 9.3%
50 | CC(C)(C)OC(=O)N1CCC(Nc2ccccc2)CC1 | inactive: -4.97%

Row | SMILES | inhibition
51 | O=C(O)C1(Nc2ccccc2)CCN(Cc2ccccc2)CC1 | inactive: -5.2%
52 | CCCOc1ccc(C(=O)NCC2(N(C)C)CCCCC2)cc1 | inactive: -14.8%
53 | Cc1ccccc1NC1(C#N)CCN(Cc2ccccc2)CC1 | inactive: 15.1%
54 | CCN1CCC(Nc2cccc(F)c2)CC1 | inactive: -1.83%
55 | O=C(NCC1(N2CCCCC2)CCCCC1)c1ccco1 | inactive: -4.79%
56 | Cn1c(=O)[nH]cc(N(CCCl)CCCl)c1=O | inactive: 7.43%
57 | CN(C)c1ccc(C(=O)NCC2(N3CCCCC3)CCCCC2)cc1 | inactive: 27.9%
58 | CC(=O)N(c1ccccc1)C1CCNCC1 | inactive: 30.1%
59 | COc1cc(OC)cc(C(=O)NCC2(N3CCCCC3)CCCCC2)c1 | inactive: 17.8%
60 | Cc1ccc(C(=O)NCC2(N3CCCCC3)CCCCC2)o1 | inactive: 8.53%
61 | Fc1ccccc1NC1CCN(Cc2ccccc2)CC1 | inactive: 4.6%
62 | Cc1ccc(NC2(C#N)CCN(Cc3ccccc3)CC2)cc1 | inactive: 5.7%
63 | CN(C)C1(CNC(=O)c2cccc(C#N)c2)CCCCC1 | inactive: -5.65%
64 | c1ccc(CN2CCC(Nc3ccccc3)CC2)cc1 | inactive: 2%
65 | Cc1cc(N(CCCl)CCCl)ccc1C=O | inactive: -3.39%
66 | CCCN1CCC(Nc2cc(OC)cc(OC)c2)CC1 | inactive: -15%
67 | N#Cc1ccc(C(=O)NCC2(N3CCCCC3)CCCCC2)cc1 | inactive: -2.17%
68 | CC(C)(C)OC(=O)N1CCC(N(C(=O)c2ccccc2)c2ccc(Cl)cc2)CC1 | inactive: 5.74%
69 | CCOC(=O)N1CCC(Nc2ccc(C)cc2)CC1 | inactive: 47.6%
70 | N/C(=N\O)c1c(N)no[n+]1[O-] | inactive: -8.67%
71 | O=C(OC1CN2CCC1CC2)C1c2ccccc2C=Cc2ccccc21 (centres undefined) | inactive: -4.11%
72 | COc1cc(C(=O)NCC2(N3CCOCC3)CCCCC2)cc(OC)c1C | inactive: -5.89%
73 | O=C(NCC1(N2CCOCC2)CCCCC1)c1cc(Br)ccc1Cl | inactive: -8.98%
74 | COc1ccc(C(=O)NCC2(N3CCOCC3)CCCCC2)cc1OC | inactive: 9.5%
